Measured values reported in publication PMC2948013 (PLoS ONE, 2010).

B1: mDia1 FH2-DAD, residues 736–1200 (domain or fragment, mouse (murine), UniProt O08808 736-1200, looked up)
chain: FGFGVPAAPVLPFGLTPKKVYKPEVQLRRPNWSKFVAEDLSQDCFWTKVKEDRFENNELFAKLTLAFSAQTKTSKAKKDQEGGEEKKSVQKKKVKELKVLDSKTAQNLSIFLGSFRMPYQEIKNVILEVNEAVLTESMIQNLIKQMPEPEQLKMLSELKEEYDDLAESEQFGVVMGTVPRLRPRLNAILFKLQFSEQVENIKPEIVSVTAACEELRKSENFSSLLELTLLVGNYMNAGSRNAGAFGFNISFLCKLRDTKSADQKMTLLHFLAELCENDHPEVLKFPDELAHVEKASRVSAENLQKSLDQMKKQIADVERDVQNFPAATDEKDKFVEKMTSFVKDAQEQYNKLRMMHSNMETLYKELGDYFVFDPKKLSVEEFFMDLHNFRNMFLQAVKENQKRRETEEKMRRAKLAKEKAEKERLEKQQKREQLIDMNAEGDETGVMDSLLEALQSGAAFRRKRG
notes: mDia1 (murine Dia1, diaphanous-related formin), residues 736-1200: FH2 and DAD domains, FH1 omitted; Tag removal is described for the N+C complexes; The final model holds residues 745-1198; also called C-terminus; source: E. coli BL21 (DE3), purified (Ni-chelating column; N+C complex by anion exchange, HiTrapQ)

How the values were obtained:
[1] = target: B1; assay: SEC-MALS; Superose 6, 1 mg/ml, 0.3 ml injected, 0.3 ml/min, 20 mM HEPES pH 7.4, 150 mM NaCl, 1 mM EDTA, 2 mM DTT; N+C complexes isolated by anion exchange (HiTrapQ) beforehand; C-terminal fragment also run alone; conditions: both partners purified
[2] = target: the molecule itself; assay: as above
[3] = target: B1; assay: native gel or EMSA; non-denaturing PAGE, 4–15% gradient gel on a PhastSystem; complexes co-purified or combined from separately purified fragments; analysed on Day 0 and after five days; conditions: both partners purified

| stoichiometry N [1] | binding result [3] | Binder | other results |
| --- | --- | --- | --- |
| 1 N-terminal chain per C-terminal chain (4:4 complex) | – | mDia1 GBD-DID-DD, residues 72–458 (domain or fragment, mouse (murine), UniProt O08808 72-458, looked up, mDia1 (murine Dia1), residues 72-458: G domain, DID and DD domains; also called G-DID-DD; source: E. coli BL21 (DE3), purified; analogous procedures to the 131-458 fragment) AQSLQDISDEQVLVLFEQMLVDMNLNEEKQQPLREKDIVIKREMVSQYLHTSKAGMNQKESSRSAMMYIQELRSGLRDMHLLSCLESLRVSLNNNPVSWVQTFGAEGLASLLDILKRLHDEKEETSGNYDSRNQHEIIRCLKAFMNNKFGIKTMLETEEGILLLVRAMDPAVPNMMIDAAKLLSALCILPQPEDMNERVLEAMTERAEMDEVERFQPLLDGLKSGTSIALKVGCLQLINALITPAEELDFRVHIRSELMRLGLHQVLQELREIENEDMKVQLCVFDEQGDEDFFDLKGRLDDIRMEMDDFGEVFQIILNTVKDSKAEPHFLSILQHLLLVRNDYEARPQYYKLIEECVSQIVLHKNGTDPDFKCRHLQIDIERLVDQ | – |
| – | – | B1 | binding result [2]: binds |
| 1 N-terminal chain per C-terminal chain (4:4 complex) | – | mDia1 DID-DD, residues 131–458 (domain or fragment, mouse (murine), UniProt O08808 131-458, looked up, mDia1 (murine Dia1, diaphanous-related formin), residues 131-458: DID and DD domains; Tag removed with TEV protease after mixing with the C-terminal fragment; The final model holds residues 134-451; also called N-terminus; source: E. coli BL21 (DE3), purified (Ni-chelating column; N+C complex by anion exchange, HiTrapQ)) ESSRSAMMYIQELRSGLRDMHLLSCLESLRVSLNNNPVSWVQTFGAEGLASLLDILKRLHDEKEETSGNYDSRNQHEIIRCLKAFMNNKFGIKTMLETEEGILLLVRAMDPAVPNMMIDAAKLLSALCILPQPEDMNERVLEAMTERAEMDEVERFQPLLDGLKSGTSIALKVGCLQLINALITPAEELDFRVHIRSELMRLGLHQVLQELREIENEDMKVQLCVFDEQGDEDFFDLKGRLDDIRMEMDDFGEVFQIILNTVKDSKAEPHFLSILQHLLLVRNDYEARPQYYKLIEECVSQIVLHKNGTDPDFKCRHLQIDIERLVDQ | – |
| 1 N-terminal chain per C-terminal chain (2:2 complex) | – | mDia1 DID-DD-CC, residues 131–477 (domain or fragment, mouse (murine), UniProt O08808 131-477, looked up, mDia1 (murine Dia1), residues 131-477: DID, DD and a portion of the coiled-coil region; also called long N; source: E. coli BL21 (DE3), purified; analogous procedures to the 131-458 fragment) ESSRSAMMYIQELRSGLRDMHLLSCLESLRVSLNNNPVSWVQTFGAEGLASLLDILKRLHDEKEETSGNYDSRNQHEIIRCLKAFMNNKFGIKTMLETEEGILLLVRAMDPAVPNMMIDAAKLLSALCILPQPEDMNERVLEAMTERAEMDEVERFQPLLDGLKSGTSIALKVGCLQLINALITPAEELDFRVHIRSELMRLGLHQVLQELREIENEDMKVQLCVFDEQGDEDFFDLKGRLDDIRMEMDDFGEVFQIILNTVKDSKAEPHFLSILQHLLLVRNDYEARPQYYKLIEECVSQIVLHKNGTDPDFKCRHLQIDIERLVDQMIDKTKVEKSEAKATELEK | – |
| – | binds | mDia1 G-DID-DD-CC, residues 63–518 (domain or fragment, mouse (murine), UniProt O08808 63-518, looked up, mDia1 (murine Dia1), residues 63-518: G domain, DID, DD and portions of the coiled-coil domain; source: complex with the C-terminal fragment co-purified as described in Materials and Methods) SASYGDDPTAQSLQDISDEQVLVLFEQMLVDMNLNEEKQQPLREKDIVIKREMVSQYLHTSKAGMNQKESSRSAMMYIQELRSGLRDMHLLSCLESLRVSLNNNPVSWVQTFGAEGLASLLDILKRLHDEKEETSGNYDSRNQHEIIRCLKAFMNNKFGIKTMLETEEGILLLVRAMDPAVPNMMIDAAKLLSALCILPQPEDMNERVLEAMTERAEMDEVERFQPLLDGLKSGTSIALKVGCLQLINALITPAEELDFRVHIRSELMRLGLHQVLQELREIENEDMKVQLCVFDEQGDEDFFDLKGRLDDIRMEMDDFGEVFQIILNTVKDSKAEPHFLSILQHLLLVRNDYEARPQYYKLIEECVSQIVLHKNGTDPDFKCRHLQIDIERLVDQMIDKTKVEKSEAKATELEKKLDSELTARHELQVEMKKMENDFEQKLQDLQGEKDALDSEK | – |
| – | binds | mDia1 N-terminal fragment, residues 63-462 (domain or fragment, mouse (murine), UniProt O08808 63-462, looked up, mDia1 (murine Dia1), N-terminal residues 63-462) SASYGDDPTAQSLQDISDEQVLVLFEQMLVDMNLNEEKQQPLREKDIVIKREMVSQYLHTSKAGMNQKESSRSAMMYIQELRSGLRDMHLLSCLESLRVSLNNNPVSWVQTFGAEGLASLLDILKRLHDEKEETSGNYDSRNQHEIIRCLKAFMNNKFGIKTMLETEEGILLLVRAMDPAVPNMMIDAAKLLSALCILPQPEDMNERVLEAMTERAEMDEVERFQPLLDGLKSGTSIALKVGCLQLINALITPAEELDFRVHIRSELMRLGLHQVLQELREIENEDMKVQLCVFDEQGDEDFFDLKGRLDDIRMEMDDFGEVFQIILNTVKDSKAEPHFLSILQHLLLVRNDYEARPQYYKLIEECVSQIVLHKNGTDPDFKCRHLQIDIERLVDQMIDK | – |
